scFv variants of Ab-91 (heavy chain) against a SARS-CoV-2 spike peptide

The measurements come from Engelhart et al. 2022 (doi:10.1038/s41597-022-01779-4) through the FLAb antibody collection.

Target: peptide PDVDLGDISGINAS, taken from heptad repeat 2 (HR2) of SARS-CoV-2 spike.

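The parent was found by panning a naive human phage display library on the peptide. The library (AAYL51) carries one to three amino acid substitutions per variant, with no insertions or deletions. Affinity was read by AlphaSeq, a pooled yeast mating assay with surface-displayed partners. Mating (16 h, 30 °C) was followed by selection of diploids and sequencing of their barcodes. Read counts were normalised to the haploid input and turned into Kd by a linear fit to BCL2-family pairs of known affinity, for each replicate. Each pool was mated in three replicate cultures.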

Parent: Ab-91, a human scFv built as VL, a (GGGGS)3 linker, VH. Only the CDRs of the heavy chain vary.
VL: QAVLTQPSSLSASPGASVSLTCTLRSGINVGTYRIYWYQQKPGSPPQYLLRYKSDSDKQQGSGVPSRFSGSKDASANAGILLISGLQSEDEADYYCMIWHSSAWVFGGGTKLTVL
VH: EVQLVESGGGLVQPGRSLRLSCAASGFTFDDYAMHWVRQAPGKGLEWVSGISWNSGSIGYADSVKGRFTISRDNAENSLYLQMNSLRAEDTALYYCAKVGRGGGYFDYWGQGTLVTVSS

Substitutions are numbered in sequence along the VH above, starting at 1 (not Kabat).
This list gathers variants with a substitution at F27 (VH, numbered from residue 1).
Each Kd is an estimate from the mating assay, the geometric mean of the replicates in which the pair was seen; lower is stronger.
"nd" means that the variant was in the library but no mating with the target was seen in any replicate; the authors take this as a sign of poor binding, and no number exists.
Three control strains display no target. For library AAYL51, 21% of the pairings with them gave a signal, with a median of 34 µM and one signal in twenty below 1.8 µM, so weak values seen in few replicates may be background.
Parent in this assay: reference entry 72 nM, copy in this library 7.5 nM.

Variant F27V/K65I/Y108K gave 1.7 µM (3 of 3 replicates). For F27Y/S55R/G56M, the assay gave 33 µM (3 of 3 replicates). With F27P/T28A/G104T the result was 21 µM (2 of 3 replicates). With F27A/H35M/D62I the result was 160 nM (3 of 3 replicates). Variant F27G/G50K/D107Y showed 31 µM (2 of 3 replicates). With F27L/D31K/Y105R the result was nd (0 of 3 replicates). Variant F27G/N54K/G104N gave 420 nM (1 of 3 replicates). Variant G26M/F27V/V64F gave 17 µM (1 of 3 replicates).

Variant F27Q/D62S/R101N showed 20 µM (2 of 3 replicates). Variant F27S/S52N/G100V showed nd (0 of 3 replicates). For F27N/I58C/K65C, the assay gave nd (0 of 3 replicates). Variant F27W/I51D/S57E showed nd (0 of 3 replicates). Variant F27K/A61L gave 51 µM (1 of 3 replicates). Variant F27M/F29N/Y60C gave nd (0 of 3 replicates). With F27P/I51D the result was nd (0 of 3 replicates). With G26E/F27H/K65R the result was nd (0 of 3 replicates).

With F27L/I51C/F106K the result was 540 µM (1 of 3 replicates). With F27M/F29W/S63P the result was 6.7 µM (1 of 3 replicates). Variant F27Y/D30M/F106P gave 450 nM (3 of 3 replicates). Variant F27K/H35I/V64M gave 70 µM (2 of 3 replicates). Variant F27P/I58Q/G102W gave 310 µM (3 of 3 replicates). With F27G/G100S/R101C the result was nd (0 of 3 replicates). With F27Q/W53H the result was 1.2 µM (1 of 3 replicates). With F27N/A33K/G102Y the result was 790 nM (1 of 3 replicates).

With F27T/H35C/I58Y the result was nd (0 of 3 replicates). Variant F27V/F29P/W53V gave 270 µM (1 of 3 replicates). Variant F27C/R101F gave 2.6 µM (1 of 3 replicates). For F27P/M34F/W53R, the assay gave 130 µM (3 of 3 replicates). Variant F27L/D62V/V64T showed nd (0 of 3 replicates). With F27A/S55P/F106W the result was 210 µM (1 of 3 replicates). For F27P/G50R/V99H, the assay gave 78 µM (2 of 3 replicates). Variant F27M/D62N/K65M showed 6.3 µM (1 of 3 replicates).

For F27E/S52I/D62I, the assay gave 3.2 µM (1 of 3 replicates). With F27Q/S63G the result was 300 µM (1 of 3 replicates). With F27I/Y60I the result was nd (0 of 3 replicates). With F27N/S57G the result was nd (0 of 3 replicates). Variant F27V/Y32C/G100M gave 25 µM (2 of 3 replicates).

The 6 strongest on average among those seen in every replicate, once more:

changes	Kd (apparent)	seen in
F27A/H35M/D62I	160 nM	3/3
F27Y/D30M/F106P	450 nM	3/3
F27V/K65I/Y108K	1.7 µM	3/3
F27Y/S55R/G56M	33 µM	3/3
F27P/M34F/W53R	130 µM	3/3
F27P/I58Q/G102W	310 µM	3/3